Apparent affinities of Ab-14 variants for a coronavirus HR2 peptide

Source: Engelhart et al. 2022 (doi:10.1038/s41597-022-01779-4), MIT Lincoln Laboratory and A-Alpha Bio; data file from the FLAb repository.

Target: peptide PDVDLGDISGINAS, taken from heptad repeat 2 (HR2) of SARS-CoV-2 spike.

The variants keep the heavy chain, the linker and the frameworks of Ab-14 (scFv order VH, three GGGGS repeats, VL).
VH: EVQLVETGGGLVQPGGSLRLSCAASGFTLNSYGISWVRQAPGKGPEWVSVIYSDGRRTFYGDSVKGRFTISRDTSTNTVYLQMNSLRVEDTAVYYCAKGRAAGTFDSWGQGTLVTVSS
VL: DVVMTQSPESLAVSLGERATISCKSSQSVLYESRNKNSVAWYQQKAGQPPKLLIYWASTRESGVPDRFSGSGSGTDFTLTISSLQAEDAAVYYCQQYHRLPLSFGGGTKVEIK

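Phage display of a naive human antibody library on the peptide gave the parent. AAYL50 was designed without a model: most single CDR substitutions and a random sample of double and triple ones. The scFvs were displayed on barcoded MATa yeast, the peptide on MATalpha yeast. Pairs that bind mate more often; barcode pairs of the diploids are counted by sequencing. Each replicate has its own calibration line, from reference interactions of the BCL2 family. Mating was done three times.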

Substitutions are numbered in sequence along the VL above, starting at 1 (not Kabat).
Numbers give log10(Kd / nM), so 0 is 1 nM and 3 is 1 µM. Smaller is tighter.
An entry "nd" has no value in the source: the pair was not observed among the diploids in that replicate. This suggests poor binding but is not conclusive.
Three control strains display no target. For library AAYL50, 18% of the pairings with them gave a signal, with a median of 4.19 and one signal in twenty below 2.99, so weak values seen in few replicates may be background. Also given: how often the same scFv was detected with the empty control strains, with their mean in brackets.

| changes | replicates, log10 nM | signal with controls |
|---|---|---|
| N35R+S38E+S103C | nd / nd / nd | 0/9 |
| S25P+L102N | 2.47 / 2.30 / 2.52 | 1/9 (3.99) |
| S25W+N37I+H98F | 2.01 / 1.81 / 2.04 | 1/9 (4.31) |
| R34D+V39G+H98T | 1.62 / 1.82 / 2.00 | 2/9 (3.62) |
| E32H+A57K+Y97R | nd / nd / nd | 1/9 (3.46) |
| K24T+N37Q+S38N | nd / nd / nd | 0/9 |
| K24N+S38C+H98A | 1.92 / 1.87 / 1.98 | 3/9 (5.54) |
| H98S+L100W+P101N | 0.74 / 0.94 / 0.84 | 1/9 (4.34) |
| K24A+Q27N+T59S | 1.95 / 2.76 / 2.49 | 1/9 (3.42) |
| Q27T+S58D | 0.94 / 1.32 / 2.06 | 0/9 |
| S38Q+E61S+Y97G | nd / nd / nd | 0/9 |
| Q27R+L30K+R34Q | 0.71 / 0.74 / 0.89 | 1/9 (4.52) |
| A40M+R60H | 6.31 / nd / nd | 7/9 (4.54) |
| E32R+A57V+S62W | 3.34 / nd / nd | 2/9 (3.47) |
| W56L+A57L+S103L | nd / 5.02 / nd | 5/9 (4.10) |
| S25Q+Q27H+L102Y | nd / nd / nd | 1/9 (4.06) |
| Q27G+Q96D | 0.91 / 1.29 / 1.17 | 1/9 (4.14) |
| V29N+Y31K+H98S | 0.77 / 1.03 / 1.01 | 5/9 (4.92) |
| V29Q+T59W+P101A | nd / nd / nd | 0/9 |
| S26Y+V29Y+S58L | nd / nd / nd | 0/9 |
| V39T+Q95L+R99Y | 4.47 / nd / 4.72 | 2/9 (4.34) |
| Y31Q+A57N+S58H | nd / 4.00 / nd | 1/9 (4.63) |
| S25G+V29N+K36Q | 0.60 / 0.89 / 0.95 | 7/9 (4.35) |
| Q27L+N37V+L100H | nd / nd / nd | 2/9 (3.24) |
| K24I+T59I+P101A | nd / nd / nd | 1/9 (4.61) |
| N35G+L100Q | 1.15 / 1.18 / 1.18 | 1/9 (3.91) |
| S33C+N35P+R99T | nd / nd / nd | 0/9 |
| Y31E+A40I+R99K | nd / nd / 3.36 | 1/9 (3.69) |
| S28K+A57V+Y97Q | 2.12 / nd / 3.24 | 1/9 (3.50) |
| K24V+K36M+R99V | 0.82 / 0.99 / 0.91 | 6/9 (4.45) |
| V39W+Q95Y+Q96T | nd / 4.39 / nd | 5/9 (4.49) |
| K24P+V29F+K36A | 4.63 / nd / nd | 2/9 (4.35) |
| S33E+N37D+R99E | 1.80 / 1.75 / 1.69 | 5/9 (4.50) |
| S28C+E32A+S38C | nd / nd / nd | 1/9 (4.63) |
| K24V+S33G+S62E | 0.81 / 1.07 / 1.03 | 0/9 |
| Y31I+A57C+S62D | 2.11 / 1.69 / 1.95 | 2/9 (3.72) |
| S28F+S38N+R60D | nd / nd / nd | 1/9 (4.31) |
| R34G+V39L+E61R | nd / nd / 4.28 | 1/9 (3.13) |
| K24R+Y97P+L100T | 1.49 / 1.32 / 1.37 | 2/9 (4.53) |
| R34A+Q96F+L102S | nd / nd / nd | 2/9 (4.32) |
| Q27H+N35V+S38P | 1.13 / 1.16 / 1.08 | 3/9 (4.25) |
| E32G+R60M+Q95D | 3.58 / 3.32 / 3.28 | 3/9 (4.36) |
| T59N+Y97V+L100S | nd / 4.49 / nd | 3/9 (4.51) |
| Q27Y+S38M+P101A | nd / nd / nd | 1/9 (5.48) |
| Q27P+L30T+S38N | 0.69 / 1.02 / 0.91 | 1/9 (4.20) |
| N35T+V39L+A40C | nd / 4.10 / 6.12 | 2/9 (4.90) |
| V29T+A57K+L102P | 3.92 / 3.45 / nd | 3/9 (4.37) |
| N35W+W56N+L102D | 4.79 / 4.52 / 4.84 | 0/9 |
| K24T+S28H+N37D | 1.92 / 2.35 / 2.38 | 1/9 (3.26) |
| L30P+E61A | 0.76 / 0.88 / 0.95 | 6/9 (4.56) |
| W56L+S58T+R99E | 5.38 / 3.80 / 4.88 | 4/9 (4.65) |

Excerpt, the final 7 entries:

changes,"replicates, log10 nM",signal with controls
Q27P+L30T+S38N,0.69 / 1.02 / 0.91,1/9 (4.20)
N35T+V39L+A40C,nd / 4.10 / 6.12,2/9 (4.90)
V29T+A57K+L102P,3.92 / 3.45 / nd,3/9 (4.37)
N35W+W56N+L102D,4.79 / 4.52 / 4.84,0/9
K24T+S28H+N37D,1.92 / 2.35 / 2.38,1/9 (3.26)
L30P+E61A,0.76 / 0.88 / 0.95,6/9 (4.56)
W56L+S58T+R99E,5.38 / 3.80 / 4.88,4/9 (4.65)